Antibody variant affinities, Ab-14 light chain, assay B

Antigen: PDVDLGDISGINAS, a 14-residue peptide of the SARS-CoV-2 spike HR2 region.

Ab-14 is the parent antibody, in scFv form: VH, then three GGGGS repeats, then VL. The heavy chain is unchanged in all variants.
VH: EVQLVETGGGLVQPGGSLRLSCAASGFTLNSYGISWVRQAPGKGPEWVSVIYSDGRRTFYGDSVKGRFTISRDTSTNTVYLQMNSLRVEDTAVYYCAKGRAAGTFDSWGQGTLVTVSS
VL: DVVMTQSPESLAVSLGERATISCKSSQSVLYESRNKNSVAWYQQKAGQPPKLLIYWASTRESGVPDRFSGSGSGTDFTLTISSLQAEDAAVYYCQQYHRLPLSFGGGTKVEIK

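Phage display of a naive human antibody library on the peptide gave the parent. The variants were designed computationally from a first round of random CDR variants and then made and measured. Several design methods are mixed in this list. In AlphaSeq, yeast of one mating type display the scFv and yeast of the other type display the target. After mating in shaken culture at 30 °C for 16 h, diploids were selected and their barcode pairs sequenced. Scores were corrected for input abundance and mapped to Kd with protein pairs of known affinity run in the same pool. Each pool was mated in six replicate cultures.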

Each variant is given by its three light chain CDRs, as the data file delimits them; those of the parent are KSSQSVLYESRNKNSVA, WASTRES, QQYHRLPLS. Variants here have more than six changes. The Kd shown is the geometric mean over detected replicates; a lower Kd is a better binder. "no signal" marks a missing value. The strain was present, yet no cells mated with the target were sequenced in any replicate, which points to weak or no binding. The list is sorted by this average, lowest first, undetected variants last. Of ten entries with the parent sequence, four were seen in most replicates (averages 2.2 nM to 240 nM), three in one and three in none, so single entries are noisy.

| CDR-L1 | CDR-L2 | CDR-L3 | Kd (apparent) | replicates with signal | signal with controls |
|---|---|---|---|---|---|
| KLDQLVDMESRNKNAVA | EASTRES | QQYHRLPLS | 730 pM | 6 of 6 | 3 of 18 |
| KLSGSMLYEWRNCNNVA | NASQREV | QQYHRLPLS | 1.1 nM | 6 of 6 | 0 of 18 |
| KVPQSMLYESRNANSVA | NASQRLE | QQYHRLPLS | 1.2 nM | 6 of 6 | 1 of 18 |
| QVTNISDPYGRNRNNIA | QTSERMH | QQYQMLPLA | 1.2 nM | 6 of 6 | 1 of 18 |
| KSMQSELDENRNDNSVA | SASTRLE | QQYHRLPLS | 1.4 nM | 6 of 6 | 2 of 18 |
| TIGQSVHETSRIKNSVA | HASTREE | QQYDRLPLS | 1.8 nM | 6 of 6 | 1 of 18 |
| KLMGSSLYDSRNKNSVA | NASTREW | QQYHRLPLS | 1.8 nM | 6 of 6 | 0 of 18 |
| RLLDWAYGWTMKERNIA | DEDIRGA | QQYSHLPLA | 2.3 nM | 6 of 6 | 0 of 18 |
| MFLKEDFQELAAKNAIA | NAREVVT | QHYFRLPLV | 2.4 nM | 6 of 6 | 0 of 18 |
| KLGGVTEYEMRNVNSVA | QMTTRES | QQYHRLPLS | 2.4 nM | 6 of 6 | 2 of 18 |
| HISMVMNYLSRNKNSIA | EESTRED | QQYHRLPLS | 2.8 nM | 6 of 6 | 1 of 18 |
| HIELGTWGVQKYDSSVA | HASQRQE | QQYGQLPLT | 2.8 nM | 6 of 6 | 0 of 18 |
| KIQQSWLYESRNINNVA | NCSKRES | QQYHRLPLS | 3.2 nM | 6 of 6 | 2 of 18 |
| KISQMARVGSTHGNSIA | EEATRCD | QQYHRLPLS | 3.2 nM | 6 of 6 | 1 of 18 |
| KFKAMLNMWARDIHNVA | HADERAV | QQYSRLPLG | 3.2 nM | 6 of 6 | 1 of 18 |
| KLWIDMYNGRNQANAVA | EGNILAN | QQYARLPFL | 4.6 nM | 6 of 6 | 1 of 18 |
| KLSQVTGHMQVEKNNVA | EMETRGN | QQYDRLPLS | 5.1 nM | 6 of 6 | 0 of 18 |
| TISQMTSSFTQNINNVA | EVSTRCK | QQYDRLPLA | 5.1 nM | 6 of 6 | 0 of 18 |
| MMGMTVINQSNMIQNVA | DMNERFA | QQYFQLPLS | 5.3 nM | 6 of 6 | 0 of 18 |
| KIGMTLNQLMHKKNNVA | DLVEREM | QQYFRLPLS | 6.0 nM | 6 of 6 | 1 of 18 |
| KISMLINMTFEQSNNVA | EMATREE | QQYNRLPLS | 7.2 nM | 6 of 6 | 0 of 18 |
| QLSMITGHVSMTKNNVA | EMETRMN | QQYDRLPLS | 8.0 nM | 6 of 6 | 0 of 18 |
| KLSQVTGHMQVEKNNVA | EMETREN | QQYDRLPLS | 9.1 nM | 6 of 6 | 3 of 18 |
| SLELFSLEGDKPVNAVA | DEVVKTS | QQYFRLPLH | 10 nM | 6 of 6 | 0 of 18 |
| TVKMELEEFAQDKHSVA | EAVERES | QQYHRLPII | 14 nM | 6 of 6 | 0 of 18 |
| NFSYALFAEDAKKKSIA | ENEVTEY | QQYAKLPLT | 15 nM | 6 of 6 | 1 of 18 |
| YMSMYTDMQQNIQCGVA | DATTRND | QQYQRLPLS | 15 nM | 6 of 6 | 0 of 18 |
| MISQLYNMGSFAINSVA | QASERNN | QQYDRLPLM | 15 nM | 6 of 6 | 0 of 18 |
| MFSQLVYTGSRTRNAVA | QASTREN | QQYHHLPLA | 20 nM | 6 of 6 | 1 of 18 |
| IISGSMVMESKHKNSVA | NAETREY | QHYDRLPLS | 28 nM | 6 of 6 | 1 of 18 |
| KVSEFMRGLMKMKDSIA | DNNTRGA | QQYDRLPLS | 31 nM | 6 of 6 | 1 of 18 |
| TIGGTLMYGSRNRSNVA | EVSQRLN | QQYDRLPLL | 32 nM | 6 of 6 | 0 of 18 |
| ALALTLHQVDSQQNNIA | QGMERES | QQYNRLPLG | 37 nM | 6 of 6 | 0 of 18 |
| TIGQTLMAGIRNRSNVA | EVSQRLN | QQYDRLPLM | 38 nM | 6 of 6 | 3 of 18 |
| MISQLYNMGQFAINSVA | QASERYN | QQYDRLPLI | 42 nM | 6 of 6 | 0 of 18 |
| MFLEEDFQQLAAHSAVA | NAEEAMT | QHYFRLPLV | 43 nM | 6 of 6 | 1 of 18 |
| KISMLLNMTFEASNNVA | EMVTREK | QQYNRLPLS | 62 nM | 6 of 6 | 0 of 18 |
| TISQMWFIESKNRNNVA | EMTTREN | QDYDRLPLS | 78 nM | 3 of 6 | 0 of 18 |
| IVSQLMLWGMHAKNSIA | EAQTRIN | QQYDRLPLF | 110 nM | 4 of 6 | 0 of 18 |
| KLIQSVAMSSRQKDSIA | DNSTREY | QQYHRLPLS | 130 nM | 6 of 6 | 2 of 18 |
| KLSLSMSFSLRGTRAIA | AGSTRAH | QQYHRLPLT | 180 nM | 5 of 6 | 1 of 18 |
| HITYGMYVAGRHHSSIA | QAETRAK | QQYDRLPLI | 190 nM | 6 of 6 | 0 of 18 |
| ILGDSVLTESRNKNSVA | DNSTRES | QQYDRLPLS | 550 nM | 2 of 6 | 0 of 18 |
| KLSGFYRMESRNKNSVA | DNSTRES | QQYDRLPLS | 1.3 µM | 5 of 6 | 2 of 18 |
| KISMAVTFESRNKNSVA | ENSTRES | QSYHRLPLS | no signal | 0 of 6 | 0 of 18 |
| KLTKYQYNWTSHYQAVA | ESNTRAT | QSYYRLPFS | no signal | 0 of 6 | 0 of 18 |

Nonspecific signal, from three strains lacking the peptide, appeared in 4% of pairings of all light chain designs, centred on 430 nM (5% of these signals below 38 nM); values are not corrected for it. For each scFv, signals with the empty controls are counted beside the result. A sequence measured in both rounds can read differently, since the two assays cover different ranges. The authors averaged sequences with at least three values out of six and counted those with two or fewer as poor binders.

Values reported by Li et al. 2023, doi:10.1038/s41467-023-39022-2 (FLAb copy).